From PubChem BioAssay (NCI)
This is a selection; strong and weak results do not stand in their true shares.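 Assay: single dose, 48 h. Readout: percent growth (0 = no net growth; negative = cell death). Active: <10.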 Activity calls are given as the source filed them.

How the values were obtained:
Assay in all cases: NCI-60 one-dose screen, 48 h (100 = growth as untreated, 0 = no growth, -100 = all killed)
Settings in all cases: 10 µM
[1] = system: SK-MEL-2 melanoma
[2] = system: SN12C renal
[3] = system: UO-31 renal
[4] = system: TK-10 renal
[5] = system: ACHN renal
[6] = system: CAKI-1 renal
[7] = system: A498 renal
[8] = system: HL-60(TB) leukemia
[9] = system: CCRF-CEM leukemia
[10] = system: MOLT-4 leukemia
[11] = system: SR leukemia
[12] = system: RPMI-8226 leukemia
[13] = system: OVCAR-8 ovarian
[14] = system: OVCAR-5 ovarian
[15] = system: OVCAR-4 ovarian
[16] = system: SK-OV-3 ovarian
[17] = system: IGROV1 ovarian
[18] = system: OVCAR-3 ovarian
[19] = system: HS 578T breast
[20] = system: EKVX NSCLC

Measured: growth

CCC(C)(C)c1ccc(O)c(CN(CCCl)CCCl)c1
inactive: [1] 110% | [2] 102% | [3] 90.3% | [4] 99.2% | [5] 99.2% | [6] 97.2% | [7] 90.6% | [8] 99.1% | [9] 101% | [10] 92.2% | [11] 92.4% | [12] 107% | [13] 104% | [14] 103% | [15] 99.7% | [16] 96.2% | [17] 104% | [18] 103% | [19] 112%

CCCSP(=O)(CCl)N(CCCl)CCCl (stereo unspecified)
inactive: [1] 64.1% | [2] 99.3% | [3] 76.3% | [4] 101% | [5] 89.6% | [6] 92.5% | [7] 100% | [8] 101% | [10] 97% | [11] 96% | [12] 93.4% | [13] 91.1% | [14] 99.5% | [15] 98.7% | [16] 105% | [17] 96.9% | [18] 102%

ClCCSC(SCCCl)=C(SCCCl)SCCCl
inactive: [1] 129% | [20] 92.7% | [2] 64.6% | [4] 96.3% | [5] 36.8% | [6] 41.2% | [7] 107% | [8] 50.7% | [9] 38.9% | [10] 66.4% | [12] 86.3% | [13] 83.1% | [14] 105% | [15] 105% | [16] 95.2% | [17] 94.3% | [18] 103% | [19] 96%

C[N+](C)(CCCl)CCCl
inactive: [2] 100% | [3] 95.9% | [4] 115% | [5] 102% | [6] 111% | [7] 115% | [8] 96.8% | [10] 103% | [11] 98.8% | [12] 99.3% | [13] 93.7% | [14] 112% | [15] 103% | [16] 105% | [17] 126% | [18] 108% | [19] 97.5%

COc1ccc(C(=O)O)cc1N(CCCl)CCCl
inactive: [1] 105% | [2] 98.4% | [3] 80.6% | [4] 91% | [5] 103% | [6] 76.3% | [7] 102% | [8] 87.2% | [9] 73.3% | [10] 79.5% | [11] 66.9% | [12] 95.7% | [13] 97.1% | [14] 99% | [15] 109% | [16] 97.7% | [17] 73.2% | [18] 106% | [19] 105%

CC(C)(C)C(=O)CBr
inactive: [2] 107% | [3] 87.8% | [4] 98.5% | [5] 104% | [6] 99.9% | [7] 106% | [8] 96.7% | [10] 97.6% | [11] 102% | [12] 102% | [13] 104% | [14] 107% | [15] 107% | [16] 114% | [17] 108% | [18] 101% | [19] 103%

O=C1CCN(Cc2ccccc2)CC1
inactive: [20] 102% | [2] 104% | [3] 84.6% | [4] 107% | [5] 117% | [6] 94.2% | [7] 83.7% | [8] 101% | [9] 101% | [10] 80.4% | [11] 99.6% | [12] 95.2% | [13] 105% | [14] 115% | [15] 101% | [16] 115% | [17] 107% | [18] 104% | [19] 105%

Cc1ccccc1NC1(C#N)CCN(Cc2ccccc2)CC1
inactive: [1] 117% | [20] 108% | [2] 108% | [3] 84.3% | [4] 118% | [5] 89.2% | [9] 94.6% | [12] 104% | [13] 102% | [14] 90.8% | [15] 99% | [16] 99% | [17] 100% | [18] 111%

COc1cc(CN(CCCl)CCCl)cc(OC)c1
inactive: [1] 90.5% | [2] 100% | [3] 89.6% | [4] 127% | [5] 93.3% | [6] 90.1% | [7] 100% | [8] 72.1% | [10] 78.6% | [11] 84.5% | [12] 97.2% | [13] 97% | [14] 103% | [15] 109% | [16] 103% | [17] 90.4% | [18] 105%

CCOP(=O)(Cl)OCC
inactive: [1] 108% | [2] 105% | [3] 86.7% | [4] 102% | [5] 99% | [6] 85.3% | [7] 110% | [8] 95.7% | [10] 98.9% | [11] 88% | [12] 98.4% | [13] 98.1% | [14] 99.3% | [15] 104% | [16] 104% | [17] 87.5% | [18] 101% | [19] 102%

Cc1ccc(CN(CCCl)CCCl)cc1C
inactive: [1] 95.7% | [2] 99.2% | [3] 76.2% | [4] 104% | [5] 91.2% | [6] 90.2% | [7] 99.7% | [8] 78.2% | [10] 93.6% | [11] 94.7% | [12] 99.8% | [13] 92.1% | [14] 99.9% | [15] 107% | [16] 103% | [17] 84.1% | [18] 109%

ClCCN1[C@@H](CCl)CC[C@@H]1c1ccccc1
inactive: [20] 102% | [2] 97.4% | [3] 89.1% | [4] 116% | [5] 98% | [6] 64.4% | [7] 107% | [8] 59% | [9] 66.7% | [10] 75.6% | [11] 57.8% | [12] 94.2% | [13] 88.9% | [14] 111% | [15] 105% | [16] 96.1% | [17] 100% | [18] 102% | [19] 103%
